Tests used:
[1] = target: T1, cynomolgus monkey transferrin receptor 1 (TfR1), full length, expressed on cells (cynomolgus monkey, UniProt Q5RDH6 1-760 (Pongo abelii entry)); assay: FACS on Ba/F3 cells, Fab supernatant
T1 construct: also called cyno TfR1; cyTfR

[2] = target: T2, human transferrin receptor 1 (TfR1), full length, expressed on cells (human, UniProt P02786 1-760); assay: FACS on Ba/F3 cells, Fab supernatant
T2 construct: also called human TfR1; huTfR

| Binder | EC50 [1] [nM] | EC50 [2] [nM] |
| --- | --- | --- |
| TfR1 ANTIBODY-A HC-H4 hIgG1 Fab′(1C)/LC-L1 hKappa (Fab, V domains shown) VH: QSLVESGGGLVQPGGSLRLSCKASGIDFSSSGYMAWVRQAPGKGLEWVGAIYTYSSNTYYASWAKGRFTISKTSSTTVYLQMNSLKTEDTAVYYCARGTYGYTGYTYTMGYFSLWGPGTLVTVSS VL: DIQMTQSPSTLSASVGDRVTITCQASQNINSYLAWYQQKPGKAPKLLIYRASTLASGVPSRFSGSGSGTEFTLTISSLQPDDFATYYCQSYYYSGSSNYNAFGGGTKVEIKR | > 21 |  |
| TfR1 ANTIBODY-A HC-H3 hIgG1 Fab′(1C)/LC-L0 hKappa (Fab, V domains shown) VH: QSLVESGGGLVQPGGSLRLSCKASGIDFSSSGYMAWVRQAPGKGLEWVGAIYTYSSNTYYASWAKGRFTISKDSKNSVYLQMNSLKTEDTAVYYCARGTYGYTGYTYTMGYFSLWGPGTLVTVSS VL: DIQMTQSPSTLSASVGDRVTITCQASQNINSYLAWYQQKPGKAPKLLIYRASSLESGVPSRFSGSGSGTEFTLTISSLQPDDFATYYCQSYYYSGSSNYNAFGGGTKVEIKR | ~19 |  |
| TfR1 ANTIBODY-A HC-H3 hIgG1 Fab′(1C)/LC-L1 hKappa (Fab, V domains shown) VH: QSLVESGGGLVQPGGSLRLSCKASGIDFSSSGYMAWVRQAPGKGLEWVGAIYTYSSNTYYASWAKGRFTISKDSKNSVYLQMNSLKTEDTAVYYCARGTYGYTGYTYTMGYFSLWGPGTLVTVSS VL: DIQMTQSPSTLSASVGDRVTITCQASQNINSYLAWYQQKPGKAPKLLIYRASTLASGVPSRFSGSGSGTEFTLTISSLQPDDFATYYCQSYYYSGSSNYNAFGGGTKVEIKR | > 26 |  |
| TfR1 ANTIBODY-A HC-H3 hIgG1 Fab′(1C)/LC-L2 hKappa (Fab, V domains shown) VH: QSLVESGGGLVQPGGSLRLSCKASGIDFSSSGYMAWVRQAPGKGLEWVGAIYTYSSNTYYASWAKGRFTISKDSKNSVYLQMNSLKTEDTAVYYCARGTYGYTGYTYTMGYFSLWGPGTLVTVSS VL: ELDMTQSPSTLSASVGDRVTITCQASQNINSYLAWYQQKPGKAPKLLIYRASTLASGVPSRFSGSGSGTEFTLTISSLQPDDFATYYCQSYYYSGSSNYNAFGGGTKVEIKR | > 38 |  |
| TfR1 ANTIBODY-A HC-H4 hIgG1 Fab′(1C)/LC-L0 hKappa (Fab, V domains shown) VH: QSLVESGGGLVQPGGSLRLSCKASGIDFSSSGYMAWVRQAPGKGLEWVGAIYTYSSNTYYASWAKGRFTISKTSSTTVYLQMNSLKTEDTAVYYCARGTYGYTGYTYTMGYFSLWGPGTLVTVSS VL: DIQMTQSPSTLSASVGDRVTITCQASQNINSYLAWYQQKPGKAPKLLIYRASSLESGVPSRFSGSGSGTEFTLTISSLQPDDFATYYCQSYYYSGSSNYNAFGGGTKVEIKR | > 29 |  |
| TfR1 ANTIBODY-A HC-H4 hIgG1 Fab′(1C)/LC-L2 hKappa (Fab, V domains shown) VH: QSLVESGGGLVQPGGSLRLSCKASGIDFSSSGYMAWVRQAPGKGLEWVGAIYTYSSNTYYASWAKGRFTISKTSSTTVYLQMNSLKTEDTAVYYCARGTYGYTGYTYTMGYFSLWGPGTLVTVSS VL: ELDMTQSPSTLSASVGDRVTITCQASQNINSYLAWYQQKPGKAPKLLIYRASTLASGVPSRFSGSGSGTEFTLTISSLQPDDFATYYCQSYYYSGSSNYNAFGGGTKVEIKR | > 64 |  |
| TfR1 ANTIBODY-A HC-H0C hIgG1 Fab′(1C)/LC-L1 hKappa (Fab, V domains shown) VH: EVQLVESGGGLVQPGGSLRLSCAASGIDFSSSGYMCWVRQAPGKGLEWVGCIYTYSSNTYYAASVKGRFTISRDDSKNSLYLQMNSLKTEDTAVYYCARGTYGYTGYTYTMGYFSLWGQGTLVTVSS VL: DIQMTQSPSTLSASVGDRVTITCQASQNINSYLAWYQQKPGKAPKLLIYRASTLASGVPSRFSGSGSGTEFTLTISSLQPDDFATYYCQSYYYSGSSNYNAFGGGTKVEIKR | ~22 | 3.2 |
| TfR1 ANTIBODY-A HC-H0C hIgG1 Fab′(1C)/LC-L0 hKappa (Fab, V domains shown) VH: EVQLVESGGGLVQPGGSLRLSCAASGIDFSSSGYMCWVRQAPGKGLEWVGCIYTYSSNTYYAASVKGRFTISRDDSKNSLYLQMNSLKTEDTAVYYCARGTYGYTGYTYTMGYFSLWGQGTLVTVSS VL: DIQMTQSPSTLSASVGDRVTITCQASQNINSYLAWYQQKPGKAPKLLIYRASSLESGVPSRFSGSGSGTEFTLTISSLQPDDFATYYCQSYYYSGSSNYNAFGGGTKVEIKR | 11.5 | 1.9 |
| TfR1 ANTIBODY-A HC-H0C hIgG1 Fab′(1C)/LC-L2 hKappa (Fab, V domains shown, also called ANTIBODY-A H0C/L2) VH: EVQLVESGGGLVQPGGSLRLSCAASGIDFSSSGYMCWVRQAPGKGLEWVGCIYTYSSNTYYAASVKGRFTISRDDSKNSLYLQMNSLKTEDTAVYYCARGTYGYTGYTYTMGYFSLWGQGTLVTVSS VL: ELDMTQSPSTLSASVGDRVTITCQASQNINSYLAWYQQKPGKAPKLLIYRASTLASGVPSRFSGSGSGTEFTLTISSLQPDDFATYYCQSYYYSGSSNYNAFGGGTKVEIKR | ~32 |  |

Source: patent US20240158494A1 (Biogen, published 2024)
